# The entries are a selection whose mix differs from that of the whole data set.
# Assay: viability loss of caspase-8 NB7 cells with TRAIL – with/without TRAIL, luminescence panel, confirmation (AID 651596)
# Details: NB7 neuroblastoma + caspase-8, without TRAIL, NB7 Caspase-8, mean of runs, at 10 µM
row,SMILES,activity [%]
1,CCCCn1nnnc1C(c1cc2ccccc2o1)N1CCC(n2c(=O)[nH]c3ccccc32)CC1 (stereo unspecified),32.4
